System: SCN1A (R1407X) CA1 GABAergic neurons
Experiment: Brain-slice whole-cell recordings, Dravet syndrome GABAergic neurons
Assay type: cell-based, mouse
Details: 10 nM
Experimental: Mice (post-natal day 14-16) were anaesthetized using isoflurane and sacrificed by decapitation. Brain slices (300-μm thick) were cut using a vibratome in the sagittal plane. Slices were kept at room temperature until recording. The slices were transferred to a recording chamber constantly perfused at 34° C. with artificial cerebrospinal fluid (CSF) solution consisting of: 125 mM NaCl, 2.5 mM KCl, 25 mM NaHCO3, 1.25 mM NaH2PO4, 1 mM MgCl2, 2 mM CaCl2) and 10 mM glucose, aerated with 95% O2 and 5% CO2 (final pH of 7.4). Whole-cell patch-clamp recordings were made using a MultiClamp 700A amplifier and pClamp acquisition software (Molecular Devices) from neurons visually identified using infrared differential interference contrast imaging (BX51, Olympus). Electrodes were pulled using a Sutter P-2000 puller (Sutter Instruments) from borosilicate micropipettes (World Precision Instruments) with an initial resistance of ˜2-3 megaohms and filled with intracellular solution consisting of 125 mM KGlu, 4 mM KCl, 2 mM MgCl2, 10 mM HEPES, 10 mM EGTA, 4 mM ATP-Mg, 0.3 mM GTP-Na, and 8 mM Biocytin Hydrochloride adjusted to a final pH of 7.3 with KOH. D-Mannitol was used to adjust osmolarity to 300 mOsm. Bridge balance was applied to all recordings. Voltage recordings were filtered at 30 kHz and sampled at 100 kHz. A holding current was injected into neurons if required, setting their holding potential to approximately −75 mV. A current injection/action potential (AP) frequency relationship was established by injecting an 800 ms square pulse of progressively depolarising currents. An automated AP detection algorithm in Axograph was used to detect AP with visual confirmation. The integrated number of APs between injection current bins of the i-o relationships was calculated (Axograph X) in order to allow comparison between control and Hm1a. AP threshold voltage was defined as the voltage at which velocity reached 10 mV/ms. For the AP waveform analysis, amplitude was measured from threshold to peak, rise-time was determined as the time between 10% to 90% of the AP amplitude and AP width was measured at 50% of the peak amplitude. AP measured at ‘collapse’ were selected for each individual cell at the first current injection at which AP collapse was robust. APs at the same current injection were analyzed in the presence of Hm1a. Membrane input resistance was measured in current clamp mode by measuring the last 200 ms of the voltage trace generated by a current injection of −10 pA.
Whole-cell recordings were made from CAT GABAergic neurons obtained from SCN1A (R1407X) Dravet syndrome mice, identified by their position within the molecular layers, and an input current versus AP firing rate relationship established. AP firing collapse in GABAergic interneurons was a robust cellular phenotype (FIG. 5a, b). […] Hm1a had no impact on resting potential (Table 7) or input resistance (550±73 versus 460±60 MΩ, p=0.11, n=10) of the SCN1A (R1407X) GABAergic neurons.

## CC(C)C[C@@H]1NC(=O)[C@H](Cc2ccc(O)cc2)NC(=O)[C@H](CCCNC(=N)N)NC(=O)[C@@H](NC(=O)[C@@H](N)CCC(=O)O)CSSC[C@@H]2NC(=O)[C@@H]3CSSC[C@@H](C(=O)N[C@@H](C)C(=O)N[C@@H](Cc4c[nH]c5ccccc45)C(=O)N[C@@H](CC(=O)O)C(=O)NCC(=O)N[C@H](C(=O)N[C@@H](Cc4ccccc4)C(=O)N[C@@H](CO)C(=O)O)[C@@H](C)O)NC(=O)[C@H](Cc4ccc(O)cc4)NC(=O)[C@H](CCCCN)NC(=O)[C@H](Cc4c[nH]c5ccccc45)NC(=O)[C@H](CC(=O)O)NC(=O)[C@H](CO)NC(=O)[C@H](CCCNC(=N)N)NC(=O)[C@H](CSSC[C@H](NC(=O)CNC(=O)CNC(=O)[C@H](Cc4ccccc4)NC1=O)C(=O)N[C@@H](CO)C(=O)N[C@@H](CO)C(=O)N[C@@H]([C@@H](C)O)C(=O)N[C@@H](CO)C(=O)N[C@@H](CC(=O)O)C(=O)N3)NC(=O)[C@H](CO)NC(=O)[C@H](CC(C)C)NC(=O)[C@H](Cc1c[nH]cn1)NC(=O)[C@H](CCCCN)NC2=O [Hm1a]
  morphology of the first two APs around the point of collapse: no significant change
550±73 versus 460±60, p=0.11, no impact
  input resistance: 460±60 MΩ
Control 0.76 ± 0.06
  Action potential Rise at rheobase: 0.71 ± 0.04 ms
Control 1.8 ± 0.2
  Action potential Width at rheobase: 1.9 ± 0.2 ms
Control 70 ± 2, n = 10
  Action potential Amp at rheobase: 71 ±4 mV
Control 73 ± 2
  RMP: 72 ± 2 mV
Control −44 ± 2
  Action potential Threshold at rheobase: −36 ± 4 mV
Current injections between 300 and 450 pA, p=0.02
  AP firing at current injections that caused 'AP collapse': rescued AP firing
p=0.001
  rheobase: small but significant right-shift
p=0.005, n=10
  maximal amplitude of 9th AP in a train at collapse: 27.1±0.1 mV
Versus 1.7±0.2, p=0.05
  rise-time of 9th AP: 1.3 ± 0.1 ms
Versus 4.3±0.4, p=0.07
  half-width of 9th AP: 3.0 ± 0.4 ms
